# System: PD-1-SmBiT: PD-1-LgBiT complex (PD-1: PD-1 interaction) in HEK-293 cells
# Experiment: NanoBiT assay for PD-1 dimerization in HEK-293 cells
# Type: cell-based, human
# Details: HEK-293, PD1SmBiT, PD1LgBiT, SHP-2 WT, kinase active Fyn; Fig. 4d
# Description: For experiments with HEK-293 cells, one day before transfection, HEK-293 were plated as 20,000 cells in 0.1 ml DMEM complete medium per well, in six replicates per condition, on a white 96-well tissue culture plate. The following day cells were transfected by Fugene HD (Promega Corporation, Madison, WI) according to the manufacturer’s instructions. A total amount of 100 ng of cDNA was transfected, which included equal amounts (25 ng) of each plasmid for conditions in which four different cDNAs were used. When <4 plasmids were used, the total amount of transfected cDNA was made 100 ng by addition of empty vector. Thirty-hours after transfection, 25 µl of 1X Nano-Glo Live-Cell Assay Substrate (Promega) was added per well and luminescence was read immediately on a SpectraMax M3 plate reader (Molecular Devices). Where indicated, the allosteric SHP-2 inhibitor SHP099 (Medchem Express) was added in the cultures in increasing concentrations; vehicle (DMSO) was used as control. For experiments with primary human T cells a total amount of 2 µg of cDNA was transiently co-transfected using the Nucleofector system as described in the Cell Transfection section. […] Cells were co-cultured with Raji-PD-L1 with or without loaded SEE and complex formation between PD-1-SmBiT and PD-1-LgBiT was assessed 6 h later by luciferase assay.
substance,measurement,value
hPDL1-monomer: monomeric recombinant human PD-L1,effect of PD-1 ligation on PD-1 dimerization,not
